GIV Gai3 FP: blocks GIV peptide binding to rat Galpha-i3; Galpha-i3/FITC-GIV peptide fluorescence polarization, 90 min; stronger effect = lower value; scaled: aluminum fluoride 0%, vehicle 100%; P08753; hit rate 0.42% among 210,000; AID 1224905; percent of control (FP), % (test concentration not listed);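 active = replicate mean at 85% of control or lower, very high polarization wells dropped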;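 also: wells of about 15 µL received 100 nL stock; the first replicate is given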
HCMV NEC inh: inhibitors of HCMV UL50-UL53 interaction, biochemical, HTRF. HCMV UL50-UL53 nuclear egress complex (human cytomegalovirus). normalized percent inhibition. inhibition, % (test concentration not listed). 190,000 tested, 0.15% active; in the data active = inhibition above about 27%, passing the limit was not always enough
* hit, by the source's call; · = no result. The sample as a whole holds a higher share of hits than the screen did.

item | Molecule | GIV Gai3 FP | HCMV NEC inh
1 | Cc1cc(=O)[nH]c(N/N=C/C2CC=CCC2)n1 (stereo not given) | · | -27.2
2 | CCCCCCC(CC[n+]1c(/C=C/C=C2N(CC)c3cc(Cl)c(Cl)cc3N2CC)n(CC)c2cc(Cl)c(Cl)cc21)S(=O)(=O)[O-] (stereo not given) | 108.8 | ·
3 | CCCCCN1/C(=C\C=C\c2n(CCCC)c3cc(Cl)c(Cl)cc3[n+]2CCCCC)N(CCCC)c2cc(Cl)c(Cl)cc21 | -62.4* | ·
4 | COc1ccc(-c2cc3ccc(O)c(CN4CCN(CCO)CC4)c3oc2=O)cc1OC | 125.5 | ·
5 | O=c1oc2c(CN3CCN(CCO)CC3)c(O)ccc2cc1-c1nc2ccccc2s1 | -45.3* | -85.6
6 | O=c1oc2ccccc2cc1-c1nc2ccccc2s1 | 100.7 | -10.2
7 | O=c1oc2c(CN3CCCCCC3)c(O)ccc2cc1-c1nc2ccccc2s1 | -31.8* | -63.8
8 | CN1CCN(Cc2c(O)ccc3cc(-c4nc5ccccc5n4C)c(=O)oc23)CC1 | 130.5 | -63.1
9 | O=c1oc2c(CN3CCOCC3)c(O)ccc2cc1-c1ccccc1 | 102.0 | ·
10 | O=c1oc2c(CN3CCCCC3)c(O)ccc2cc1-c1nc2ccccc2s1 | -31.8* | -46.8
11 | CC1CCN(Cc2c(O)ccc3cc(-c4nc5ccccc5s4)c(=O)oc23)CC1 | -31.8* | -45.3
12 | Cc1ccc2nc(-c3ccccc3NC(=O)COc3ccccc3)ccc2c1 | 103.6 | ·
13 | Cc1nc2nc(-c3ccc(C(C)(C)C)cc3)nn2c(C)c1CC(=O)N1CCCCC1 | 99.6 | 1.3
14 | COCc1cn(CC2CCN(C(=O)CC3CCCCCC3)CC2)nn1 | · | -6.5
15 | O=C(O)C1C2C3C=CC(C3)C12 (stereo not given) | 101.5 | -24.7
16 | CCN(C(=O)/C=C/c1ccccc1)c1ccccc1 | 107.1 | -11.8
17 | CN(C)Cc1c(O)ccc2cc(-c3nc4ccccc4s3)c(=O)oc12 | -45.3* | -62.2
18 | COc1cccc2cc(-c3nc4ccccc4s3)c(=O)oc12 | · | -8.8
19 | COc1ccccc1NC(=O)Cc1cn2ccsc2n1 | · | -33.0
20 | CN(C)CCCNCc1cccn1C | 105.8 | 32.9*
21 | CN(C)CCCNCc1ccco1 | 98.8 | -9.2
22 | COc1cccc2c1C(=O)c1c(O)c3c(c(O)c1C2=O)C[C@@](O)(C(=O)CO)C[C@@H]3O[C@H]1C[C@H](N)[C@H](O)[C@H](C)O1 | -14.4* | -177.5
23 | COc1cccc2c1C(=O)c1c(O)c3c(c(O)c1C2=O)C[C@@](O)(C(=O)CO)CC3OC1CC(N)C(O)C(C)O1 (stereo not given in full) | · | -163.0
24 | CC(C)(C)C1CCc2c(sc3nc(-c4cc5ccccc5oc4=O)[nH]c(=O)c23)C1 (stereo not given) | 108.4 | -8.4
25 | CCN(CC)c1ccc2cc(-c3nc4sc5c(c4c(=O)[nH]3)CCC(C(C)(C)C)C5)c(=O)oc2c1 (stereo not given) | -66.0* | -4.7
26 | O=C(CSc1nnnn1C1CC1)N1c2ccccc2SCC1c1ccccc1 (stereo not given) | · | -29.6
27 | CSc1nc(C)cc(SCCOC(=O)Nc2ccccc2)n1 | 107.3 | -0.5
28 | CSc1nc(NC(C)C)c(C#N)c(-c2ccccc2)n1 | 97.1 | 28.8*
29 | CSc1nc(NCc2ccccc2)c(C#N)c(-c2ccccc2)n1 | 100.2 | 21.6
30 | CC1CCN(C(=O)CNC(=O)c2cccs2)CC1 | 102.8 | ·
31 | COC(=O)C1=C(C)N(Cc2ccccc2)C(=O)/C1=C\c1cccc(Cl)c1 | 50.6* | ·
32 | COC(=O)C1=C(C)N(Cc2ccccc2)C(=O)/C1=C\c1cccc(O)c1 | 107.9 | -4.7
33 | O=C(NC1CC1)c1cccn2c(-c3ccccc3F)nnc12 | 99.7 | ·
34 | Nc1nnc(CCC2CCCCC2)s1 | 101.0 | -12.3
35 | N#CC1=C(N)SC(N)=C(C#N)C1CCC1CCCCC1 | -94.8* | -7.4
36 | Cc1ccc(NC(=O)CN(C)C(=O)c2cccc(S(=O)(=O)N3CCOCC3)c2)cc1 | · | -17.7
37 | CCOc1ccc(C2Oc3c(OC)cccc3C3CC(c4ccc(OC)cc4)=NN32)cc1 (stereo not given) | 105.9 | ·
38 | CC(=O)NN1C(=O)c2cccc3c(N(C)C)ccc(c23)C1=O | 65.6* | ·
39 | CN(C)c1ccc2c3c(cccc13)C(=O)N(c1nc3ccccc3n1C)C2=O | 145.7 | 3.9
40 | CCC(C)NC(=O)c1ccc(Cn2c(=O)c3cc(OC)c(OC)cc3n(CC(=O)NCCC(C)C)c2=O)cc1 (stereo not given) | 103.2 | -33.3
41 | CCCCOc1ccc(S(=O)(=O)NCCOc2ccc(-c3ccccc3)nn2)cc1 | 100.0 | ·
42 | Nc1cccc(-c2cnco2)c1 | 105.2 | 3.9
43 | Nc1cccc(-c2ncon2)c1 | 106.3 | 83.1*
44 | Cc1csc(-c2cc(S(=O)(=O)N3CCN(Cc4ccc5c(c4)OCO5)CC3)c(C)s2)n1 | -0.1* | ·
45 | Cc1cc(C)c(S(=O)(=O)N2CCN(Cc3ccc4c(c3)OCO4)CC2)cc1C | 100.6 | -23.9
46 | Cc1c(-c2nnc(C(=O)NC3CC3)o2)oc2ccccc12 | 102.9 | -28.5
47 | C1=C(c2ccc3c(c2)OCO3)Nc2ncnn2C1c1cccs1 (stereo not given) | -22.3* | ·
48 | CN(C)c1ccc(C2C=C(c3ccccc3)Nc3ncnn32)cc1 (stereo not given) | 134.5 | ·
49 | C1=C(c2ccccc2)Nc2ncnn2C1c1cccs1 (stereo not given) | -24.0* | ·
50 | C1=C(c2ccccc2)Nc2ncnn2C1c1ccc2c(c1)OCO2 (stereo not given) | 102.6 | -30.0

New compounds follow
item | Molecule | GIV Gai3 FP | HCMV NEC inh
51 | O=C(Nc1ccc2ccc(=O)oc2c1)C1=Cc2cc(Br)ccc2OC=C1 | 102.6 | 1.8
52 | C=CCc1cccc(C=NC2=C(C#N)CCC2)c1O | · | -7.0
53 | CCC(=O)Nc1sc2c(c1-c1nc3ccccc3s1)CCN(C(C)=O)C2 | 104.4 | -28.3
54 | COC(=O)c1c(NC(=O)c2ccc(Br)cc2)sc2c1CCN(C(C)C)C2 | -26.3* | ·
55 | CC(=O)N1CCc2c(sc(NC(=O)c3ccc(Br)s3)c2-c2nc3ccccc3s2)C1 | 107.6 | -21.7
56 | CCOc1ccc(C(=O)Nc2sc3c(c2-c2nc4ccccc4s2)CCN(CC)C3)cc1 | -3.2* | ·
57 | CN1CCc2c(sc(NC(=O)CSc3ccccc3)c2-c2nc3ccccc3s2)C1 | 188.4 | ·
58 | CCOC(=O)c1c(NC(=O)c2ccc(Cl)cc2)sc2c1CCN(C(C)C)C2 | 185.8 | ·
59 | CC(C)N1CCc2c(sc(NC(=O)c3ccc(F)cc3)c2-c2nc3ccccc3s2)C1 | -3.2* | ·
60 | CC(C)Oc1ccc(C(=O)Nc2sc3c(c2-c2nc4ccccc4s2)CCN(C)C3)cc1 | -3.2* | ·
61 | COc1ccc(-c2nc3c(s2)CN(C(=O)c2ccccc2F)CC3)cc1 | 96.1 | -16.3
62 | COc1ccc(/C=N/N=C2\NC(=O)C(CC(=O)Nc3ccccc3)S2)cc1 (stereo not given) | 101.0 | -31.2
63 | Cn1c(SCc2ccccc2)nc2cc(-c3ccccc3)sc2c1=O | 101.2 | ·
64 | COCCNC(=O)c1sc2ncnc(N3CCN(c4ccccc4)CC3)c2c1C | 102.1 | ·
65 | O=S(=O)(NC1CCCCCC1)c1cc(-c2cc(C(F)(F)F)on2)cs1 | 103.2 | ·
66 | CC(=O)Nc1sc2c(c1-c1nc3ccccc3s1)CCN(Cc1ccccc1)C2 | -3.2* | ·
67 | CCN1CCc2c(sc(NC(=O)CCc3ccccc3)c2-c2nc3ccccc3s2)C1 | 121.3 | ·
68 | O=C1NC(=O)C(=Cc2ccc(-c3ccccc3)o2)C(=O)N1 | 93.4 | ·
69 | CC(C=C1C(=O)NC(=O)NC1=O)c1ccccc1 (stereo not given) | 112.8 | 61.5*
70 | CC(CCc1ccco1)NC(=O)Cn1ncc2ccccc21 (stereo not given) | 112.8 | ·

In the list so far, these contain an NH in an aromatic ring:
item | Molecule | GIV Gai3 FP | HCMV NEC inh
1 | Cc1cc(=O)[nH]c(N/N=C/C2CC=CCC2)n1 (stereo not given) | · | -27.2
24 | CC(C)(C)C1CCc2c(sc3nc(-c4cc5ccccc5oc4=O)[nH]c(=O)c23)C1 (stereo not given) | 108.4 | -8.4
25 | CCN(CC)c1ccc2cc(-c3nc4sc5c(c4c(=O)[nH]3)CCC(C(C)(C)C)C5)c(=O)oc2c1 (stereo not given) | -66.0* | -4.7

Ordered by SMILES length (ascending): three of the compounds above.
item | Molecule | GIV Gai3 FP | HCMV NEC inh
35 | N#CC1=C(N)SC(N)=C(C#N)C1CCC1CCCCC1 | -94.8* | -7.4
33 | O=C(NC1CC1)c1cccn2c(-c3ccccc3F)nnc12 | 99.7 | ·
32 | COC(=O)C1=C(C)N(Cc2ccccc2)C(=O)/C1=C\c1cccc(O)c1 | 107.9 | -4.7

High-throughput results deposited in PubChem BioAssay by ICCB-Longwood Screening Facility, Harvard Medical School.
